Marks after values point to notes of the source that are not given here.
Columns and labels:
hERG [1] = biological target: T1, hERG (Homo sapiens, UniProt Q12809); experiment: Whole-cell patch-clamp, protective effect of DMPC, DMPG, DMPC/DMPG, LysoPG and LysoPC against hERG inhibition by Nilotinib; conditions: hERG tail current density relative to baseline 1.000; HEK 293; 5 min exposure; Nilotinib 0.1 μM (alone in DMSO, with lipid in aqueous solution); 14:0 LysoPG […]
hERG [2] = biological target: T1, hERG; experiment: Whole-cell patch-clamp, protective effect of 10:0-18:0 Lyso PG and 14:0 EGPG against hERG inhibition by Nilotinib; format: cell-based; design: expressed in transfected cells; host or cells: HEK 293, stably transfected with the hERG gene (HEK-hERG); conditions: Nilotinib 0.5 μg/mL, lipid […]

Amino acid sequences for entries named in this document (tags omitted). A change or cut given only in a name is not applied to a line headed by its entry.
UniProt Q12809: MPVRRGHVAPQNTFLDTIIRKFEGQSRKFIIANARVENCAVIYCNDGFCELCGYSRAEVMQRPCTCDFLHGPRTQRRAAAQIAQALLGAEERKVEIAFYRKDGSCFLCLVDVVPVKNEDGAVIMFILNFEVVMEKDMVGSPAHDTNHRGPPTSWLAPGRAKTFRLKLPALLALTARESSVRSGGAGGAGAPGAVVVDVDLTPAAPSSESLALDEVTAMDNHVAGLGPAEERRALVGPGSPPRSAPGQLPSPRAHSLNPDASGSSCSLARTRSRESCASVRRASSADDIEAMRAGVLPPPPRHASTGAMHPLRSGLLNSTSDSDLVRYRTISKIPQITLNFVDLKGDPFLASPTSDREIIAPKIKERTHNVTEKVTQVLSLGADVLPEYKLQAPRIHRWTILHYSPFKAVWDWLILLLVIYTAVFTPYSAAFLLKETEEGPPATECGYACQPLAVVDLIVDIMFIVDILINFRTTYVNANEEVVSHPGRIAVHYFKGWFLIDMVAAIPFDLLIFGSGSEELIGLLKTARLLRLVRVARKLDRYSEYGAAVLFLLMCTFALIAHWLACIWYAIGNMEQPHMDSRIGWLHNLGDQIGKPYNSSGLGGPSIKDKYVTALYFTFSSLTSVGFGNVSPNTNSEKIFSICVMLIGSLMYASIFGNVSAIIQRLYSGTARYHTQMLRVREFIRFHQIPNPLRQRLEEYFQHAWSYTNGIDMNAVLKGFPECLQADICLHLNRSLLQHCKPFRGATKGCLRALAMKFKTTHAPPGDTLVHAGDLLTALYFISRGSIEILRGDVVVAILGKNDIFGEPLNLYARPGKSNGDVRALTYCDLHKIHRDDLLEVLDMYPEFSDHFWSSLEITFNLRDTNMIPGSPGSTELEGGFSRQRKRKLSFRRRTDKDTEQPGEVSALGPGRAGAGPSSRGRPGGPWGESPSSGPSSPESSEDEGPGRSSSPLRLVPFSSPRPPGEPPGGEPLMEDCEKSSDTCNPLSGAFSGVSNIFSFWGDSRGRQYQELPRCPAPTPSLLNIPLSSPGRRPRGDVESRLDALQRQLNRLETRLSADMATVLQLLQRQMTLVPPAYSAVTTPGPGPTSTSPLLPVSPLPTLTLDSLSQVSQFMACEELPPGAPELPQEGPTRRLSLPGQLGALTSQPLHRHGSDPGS

Q: How did the “Normalized Current Density” value (hERG [1]) turn out when `Cc1cn(-c2cc(NC(=O)c3ccc(C)c(Nc4nccc(-c5cccnc5)n4)c3)cc(C(F)(F)F)c2)cn1` [Nilotinib, reference compound] was run?
A: 0.308

Q: And the “Corrected Normalized Current Density” value (hERG [2]; corrected for solvent effect and run-down)?
A: 0.301*

Q: What about the “Normalized Current Density” value (hERG [2]; hERG tail current density relative to baseline 1.000, HEK 293) of the same compound?
A: 0.154
